The text below walks through data of ChEMBL document CHEMBL1275500, “Characterization of the new metallo-beta-lactamase VIM-13 and its integron-borne gene from a Pseudomonas aeruginosa clinical isolate in Spain” (Antimicrob Agents Chemother, 2008).

The subject of data set [1] is C[C@@H](O)[C@H]1C(=O)N2C(C(=O)O)=C(SCCNC=N)C[C@H]12. The data set is described as follows: (§1) Ratio of Kcat to Km for Pseudomonas aeruginosa VIM-1 beta-lactamase. Put shortly: (§2)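 GST-fused VIM-1 lacking signal peptide, purified, dialyzed in 50 mM HEPES pH 7.5 with 50 μM ZnSO4. Beta-lactam hydrolysis followed spectrophotometrically at 25°C in 50 mM HEPES pH 7.5, 50 μM ZnSO4, 20 μg/ml BSA.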

The test system of data set [2] is CO/N=C(\C(=O)N[C@@H]1C(=O)N2C(C(=O)O)=C(COC(C)=O)CS[C@H]12)c1csc(N)n1. The data set is described as §1. Put shortly:
as §2

Data set [3] has as its system CO/N=C(\C(=O)N[C@@H]1C(=O)N2C(C(=O)[O-])=C(C[N+]3(C)CCCC3)CS[C@H]12)c1csc(N)n1. Described as §1. Put shortly: as §2
Data set [4] has as its system C[C@@H](O)[C@H]1C(=O)N2C(C(=O)O)=C(SCCNC=N)C[C@H]12. The data set is described as follows: (§3) Activity of Pseudomonas aeruginosa VIM-1 beta-lactamase. Put shortly:
as §2

Data set [5] concerns CO/N=C(\C(=O)N[C@@H]1C(=O)N2C(C(=O)[O-])=C(C[N+]3(C)CCCC3)CS[C@H]12)c1csc(N)n1. Described as §3. Summed up:
as §2

Data set [6] deals with C[C@@H](O)[C@H]1C(=O)N2C(C(=O)O)=C(SCCNC=N)C[C@H]12. Particulars: Pseudomonas aeruginosa.
In data set [7] the test system is CO/N=C(\C(=O)N[C@@H]1C(=O)N2C(C(=O)[O-])=C(C[N+]3(C)CCCC3)CS[C@H]12)c1csc(N)n1. Particulars: Pseudomonas aeruginosa.
For data set [8], the system named is C[C@@H](O)[C@H]1C(=O)N2C(C(=O)O)=C(SCCNC=N)C[C@H]12. Particulars: Pseudomonas aeruginosa. The source holds these as a separate data set.
Data set [9] relates to CO/N=C(\C(=O)N[C@@H]1C(=O)N2C(C(=O)[O-])=C(C[N+]3(C)CCCC3)CS[C@H]12)c1csc(N)n1. Particulars: Pseudomonas aeruginosa. This is another data set of the same source.

As to “Beta-lactamase VIM-1 (Pseudomonas aeruginosa) (from UniProt Q9XAY4)”, the kcat/Km – broadly, the second-order rate constant that governs catalysis at low substrate concentration – in data set [1] was found to be 8.38 M⁻¹ s⁻¹; in data set [2], 718000 M⁻¹ s⁻¹; in [3], 3.5 M⁻¹ s⁻¹. Moreover, the Km (in general, the concentration of substrate that gives half-maximal velocity) was determined as 4 µM in [4] and 337 µM in data set [5]. Moreover, the results for the kcat in data set [4] and in [5] were 3.4 s⁻¹ and 119 s⁻¹, respectively.

As to “Class B carbapenemase VIM-13 (Pseudomonas aeruginosa) (from UniProt Q2HY42)”, the Km worked out at 18.5 µM in data set [6] and 1870 µM in data set [7]. Further, the figures for the kcat in data set [6] and in [7] were 54 s⁻¹ and 61 s⁻¹, respectively. The kcat/Km in data set [8] was 2.92 M⁻¹ s⁻¹; in [9], 3.3 M⁻¹ s⁻¹.
